Consider 24 molecules from PubChem BioAssay (NCI).

Several values for one entry are separate records, joined by “and”; a condition that tells them apart may be missing. Equal entries are not always repeated. The entries are a selection whose mix differs from that of the whole data set. Some of these compounds have results that are not shown, active ones among them.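 How to read the values: 0–100, growth inhibition (40 = 60% inhibited); 0, no net growth; -100 to 0, cell death (-40 = 40% of starting cells died; -100 = all dead).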 Activity calls are given as the source filed them. Rule for the calls: active = growth percent below 10; inactive = the rest.

The first experiment relates to MDA-MB-231 breast. Description: NCI-60 one-dose screen, 48 h (100 = growth as untreated, 0 = no growth, -100 = all killed). The note with it: 10 µM.
Turning to `N#CC(C#N)=Cc1cccc(Br)c1`, the growth is inactive: 110%.

Take `CC(=O)CI`: the growth is inactive: 105%.

`ClCCN(CCCl)Cc1ccc(Cl)c(Cl)c1`: the growth was inactive: 108%.

As for `CCCN(CCCl)CCCl`, the growth was inactive: 110%.

Consider `ClCCN(CCCl)C1CCCCC1`, for which the growth is inactive: 106%.

Regarding `BrCCN(CCBr)Cc1ccccc1`, the growth was inactive: 119%.

`N#CC(C#N)=Cc1ccc(Br)cc1`: the growth is inactive: 105% and inactive: 106%.

On to `Cc1cc2nc(CN(CCCl)CCCl)[nH]c2cc1C`, for which the growth was inactive: 87.1%.

For `COc1ccc(N=C=S)cc1CN(CCCl)CCCl`, the growth is inactive: 87.8%.

Turning to `CCNCCCl`, the growth was inactive: 110%.

As for `N#CC(C#N)=Cc1ccccc1Cl`, the growth was inactive: 107%.

For the molecule `CC[N+](C)(C)Cc1cccc(Cc2ccccc2)c1OC(=O)N(C)C`, the growth was inactive: 100%.

In the case of `COCc1c(CN(CCCl)CCCl)cnc(C)c1O`, the growth is inactive: 109%.

On to `ClCCN(CCCl)Cc1ccsc1Br`, for which the growth was inactive: 87.8%.

Turning to `ClCCN(CCCl)C1c2ccccc2-c2ccccc21`, the growth is inactive: 98.9%.

In the case of `CN(CCBr)CCBr`, the growth is inactive: 111%.

Turning to `CCOc1ccc([N+](=O)[O-])cc1CN(CCCl)CCCl`, the growth was inactive: 93.2%.

For the molecule `ClCCCCCC(CCl)NCCCl` (stereo unspecified), the growth is inactive: 108%.

For `COc1ccc([N+](=O)[O-])cc1CN(CCCl)CCCl`, the growth was inactive: 95.8%.

Take `CC(C)(C)N(CCCl)CCCl`: the growth was inactive: 113%.

Regarding `O=C(OCCN1CCCC1)C(O)(c1ccccc1)c1ccccc1`, the growth was inactive: 103%.

For the molecule `ClCCN(CCCl)Cc1cc(Cl)cc(Cl)c1`, the growth is inactive: 95.4%.

`CN(C)CCOC(=O)C(O)(c1ccccc1)c1ccccc1`: the growth was inactive: 107%.

As to `Fc1cccc(CN(CCCl)CCCl)c1`, the growth is inactive: 111%.

For a further experiment, the system named is RXF 393 renal. The experiment is described as above. The note with it: 10 µM.
As for `N#CC(C#N)=Cc1cccc(Br)c1`, the growth is inactive: 111%.

For the molecule `CC(=O)CI`, the growth is inactive: 104%.

In the case of `ClCCN(CCCl)Cc1ccc(Cl)c(Cl)c1`, the growth was inactive: 104%.

With `CCCN(CCCl)CCCl`, the growth is inactive: 102%.

On to `ClCCN(CCCl)C1CCCCC1`, for which the growth is inactive: 107%.

With `BrCCN(CCBr)Cc1ccccc1`, the growth is inactive: 108%.

Regarding `N#CC(C#N)=Cc1ccc(Br)cc1`, the growth was inactive: 107% and inactive: 101%.

As for `COc1ccc(N=C=S)cc1CN(CCCl)CCCl`, the growth was inactive: 83%.

Regarding `CCNCCCl`, the growth was inactive: 115%.

Consider `N#CC(C#N)=Cc1ccccc1Cl`, for which the growth is inactive: 105%.

As to `COCc1c(CN(CCCl)CCCl)cnc(C)c1O`, the growth is inactive: 99.1%.

Turning to `ClCCN(CCCl)Cc1ccsc1Br`, the growth is inactive: 95.3%.

Consider `ClCCN(CCCl)C1c2ccccc2-c2ccccc21`, for which the growth was inactive: 103%.

For `CN(CCBr)CCBr`, the growth was inactive: 103%.

Consider `CCOc1ccc([N+](=O)[O-])cc1CN(CCCl)CCCl`, for which the growth was inactive: 104%.

Consider `ClCCCCCC(CCl)NCCCl` (stereo unspecified), for which the growth is inactive: 108%.

Take `COc1ccc([N+](=O)[O-])cc1CN(CCCl)CCCl`: the growth was inactive: 109%.

On to `CC(C)(C)N(CCCl)CCCl`, for which the growth was inactive: 102%.

On to `O=C(OCCN1CCCC1)C(O)(c1ccccc1)c1ccccc1`, for which the growth was inactive: 122%.

Regarding `ClCCN(CCCl)Cc1cc(Cl)cc(Cl)c1`, the growth is inactive: 84.5%.

For the molecule `CN(C)CCOC(=O)C(O)(c1ccccc1)c1ccccc1`, the growth is inactive: 115%.

`Fc1cccc(CN(CCCl)CCCl)c1`: the growth was inactive: 105%.
